In PubChem BioAssay AID720509 (The Scripps Research Institute Molecular Screening Center, 2013):
The list shows a part of the results, in another mix than the full data. Activity calls are given as the source filed them.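 Rule for the calls: active = inhibition above a per-campaign cutoff: mean of compounds within control limits plus 3 SD (cut at about 15% in these data); inactive = the rest.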

Amino acid sequences for entries named in this document (tags omitted).
UniProt P02675, whole entry, looked up: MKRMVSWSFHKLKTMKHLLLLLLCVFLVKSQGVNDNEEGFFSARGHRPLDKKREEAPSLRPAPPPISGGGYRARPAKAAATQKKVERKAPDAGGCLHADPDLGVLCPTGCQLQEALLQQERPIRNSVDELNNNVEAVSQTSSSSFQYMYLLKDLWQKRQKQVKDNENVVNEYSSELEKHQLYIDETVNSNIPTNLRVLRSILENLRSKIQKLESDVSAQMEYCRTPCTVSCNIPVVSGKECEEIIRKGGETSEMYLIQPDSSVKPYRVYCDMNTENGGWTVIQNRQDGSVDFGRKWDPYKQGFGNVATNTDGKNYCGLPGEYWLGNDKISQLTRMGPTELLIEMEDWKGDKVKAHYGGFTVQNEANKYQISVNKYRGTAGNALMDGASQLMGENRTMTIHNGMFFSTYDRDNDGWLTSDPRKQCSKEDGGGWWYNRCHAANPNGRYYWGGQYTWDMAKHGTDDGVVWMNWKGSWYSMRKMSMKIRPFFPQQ

Molecular target: Fibrinogen beta chain (Homo sapiens) (UniProt P02675)
Test: small molecules displacing Tn6 from DD(E) complex – biochemical, fluorescence polarization, human fibrin, Tn6 probe, primary screen (AID 720509);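 note: 0% = median of all compound wells on the plate and 100% = blocking peptide control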
Conditions: Fibrin DD(E) TRITC-Tn6 fluorescence polarization displacement; at 8.3 µM; hits give high values

| SMILES | inhibition |
| --- | --- |
| CCOc1ncccc1C(=O)NCC1(N2CCOCC2)CCCCC1 | inactive: 2.3% |
| CN1CCC(Nc2ccc(F)c(Cl)c2)CC1 | inactive: -7.52% |
| CC(C)(C)OC(=O)N1CCC(Nc2ccccc2)CC1 | inactive: -0.95% |
| O=C(O)C1(Nc2ccccc2)CCN(Cc2ccccc2)CC1 | inactive: 3.61% |
| NN(c1ccccc1)C1CCN(CCc2ccccc2)CC1 | inactive: 2% |
| CCCOc1ccc(C(=O)NCC2(N(C)C)CCCCC2)cc1 | inactive: 1.29% |
| O=c1[nH]c2ccccc2n1C1CCN(C(c2cc3ccccc3o2)c2nnnn2C2CCCC2)CC1 (stereo not given) | inactive: 6.23% |
| COc1cccc(C(c2nnnn2C2CCCC2)N2CCC(n3c(=O)[nH]c4ccccc43)CC2)c1OC (stereo not given) | inactive: -6.18% |
| COc1cc(OC)cc(C(=O)NCC2(N3CCOCC3)CCCCC2)c1 | inactive: 8.13% |
| COc1cccc(C(=O)N(c2cc(C)cc(C)c2)C2CCN(C(=O)OC(C)(C)C)CC2)c1 | inactive: -2.01% |
| CCC(CO)(C(=O)OC1CN2CCC1CC2)c1ccccc1 (stereo not given) | inactive: -0.6% |
| CN1CCC(Nc2ccc(Cl)cc2)CC1 | inactive: -7.09% |
| CC(=O)N(c1ccccc1)C1CCNCC1 | inactive: 0.19% |
| COc1cccc(C(c2nnnn2C2CCCCC2)N2CCC(n3c(=O)[nH]c4ccccc43)CC2)c1OC (stereo not given) | inactive: 4.39% |
| CCC(c1nnnn1C1CCCCC1)N1CCC(n2c(=O)[nH]c3ccccc32)CC1 (stereo not given) | inactive: 2.96% |
| O=c1[nH]c2ccccc2n1C1CCN(C(c2ccnc3ccccc23)c2nnnn2C2CCCCC2)CC1 (stereo not given) | inactive: 0.17% |
| COc1cc(OC)cc(C(=O)NCC2(N3CCCCC3)CCCCC2)c1 | inactive: -9.36% |
| Cc1ccc(C(=O)NCC2(N3CCCCC3)CCCCC2)o1 | inactive: 1.82% |
| Fc1ccccc1NC1CCN(Cc2ccccc2)CC1 | inactive: 3.13% |
| Cc1ccc(NC2(C#N)CCN(Cc3ccccc3)CC2)cc1 | inactive: -6.88% |
| Cc1ccccc1NC1(C#N)CCN(Cc2ccccc2)CC1 | inactive: -0.9% |
| CC(C)(C)n1nnnc1C(c1ccnc2ccccc12)N1CCC(n2c(=O)[nH]c3ccccc32)CC1 (stereo not given) | inactive: -7.97% |

| SMILES | inhibition |
| --- | --- |
| CCN1CCC(Nc2cccc(F)c2)CC1 | inactive: -2.8% |
| COc1ccc(C(c2nnnn2C2CCCCC2)N2CCC(n3c(=O)[nH]c4ccccc43)CC2)cc1 (stereo not given) | inactive: 11.5% |
| O=C(NCC1(N2CCCCC2)CCCCC1)c1ccco1 | inactive: -5.63% |
| Cn1c(=O)[nH]cc(N(CCCl)CCCl)c1=O | inactive: 2.9% |
| CN(C)c1ccc(C(=O)NCC2(N3CCCCC3)CCCCC2)cc1 | inactive: 3.13% |
| N#Cc1ccc(C(=O)NCC2(N3CCCCC3)CCCCC2)cc1 | inactive: -0.91% |
| CC(C)(C)OC(=O)N1CCC(N(C(=O)c2ccccc2)c2ccc(Cl)cc2)CC1 | inactive: -10.6% |
| CN(C)C1(CNC(=O)c2cccc(C#N)c2)CCCCC1 | inactive: 5.22% |
| c1ccc(CN2CCC(Nc3ccccc3)CC2)cc1 | inactive: -6.42% |
| C/C(N)=N\P(=O)(Oc1ccccc1)Oc1ccccc1 | inactive: 0.77% |
| Cc1cc(N(CCCl)CCCl)ccc1C=O | inactive: 2.19% |
| CCCN1CCC(Nc2cc(OC)cc(OC)c2)CC1 | inactive: -6.97% |
| O=c1[nH]c2ccccc2n1C1CCN(C(c2ccccc2)c2nnnn2C2CCCC2)CC1 (stereo not given) | inactive: 2.72% |
| CC(C)(C)n1nnnc1C(c1cccc2ccccc12)N1CCC(n2c(=O)[nH]c3ccccc32)CC1 (stereo not given) | inactive: -9.62% |
| CCCCn1nnnc1C(c1ccccc1)N1CCC(n2c(=O)[nH]c3ccccc32)CC1 (stereo not given) | inactive: -1.06% |
| COc1cc(C(=O)NCC2(N3CCOCC3)CCCCC2)cc(OC)c1C | inactive: -4.49% |
| O=C(NCC1(N2CCOCC2)CCCCC1)c1cc(Br)ccc1Cl | inactive: 7.66% |
| O=c1[nH]c2ccccc2n1C1CCN(C(c2cccs2)c2nnnn2C2CCCCC2)CC1 (stereo not given) | inactive: -9.08% |
| NC(=O)C1(Nc2ccccc2)CCN(Cc2ccccc2)CC1 | inactive: 2.96% |
| COc1ccc(C(=O)NCC2(N3CCOCC3)CCCCC2)cc1OC | inactive: 5.32% |
| O=c1[nH]c2ccccc2n1C1CCN(C(c2ccnc3ccccc23)c2nnnn2C2CCCC2)CC1 (stereo not given) | inactive: -9.21% |
| COc1cccc(C(c2nnnn2C(C)(C)C)N2CCC(n3c(=O)[nH]c4ccccc43)CC2)c1OC (stereo not given) | inactive: -6.25% |

| SMILES | inhibition |
| --- | --- |
| CCOC(=O)N1CCC(Nc2ccc(C)cc2)CC1 | inactive: -4% |
| N/C(=N\O)c1c(N)no[n+]1[O-] | inactive: 13.2% |
| O=C(OC1CN2CCC1CC2)C1c2ccccc2C=Cc2ccccc21 (stereo not given) | inactive: -2.41% |
| O=c1[nH]c2ccccc2n1C1CCN(C(c2cccs2)c2nnnn2C2CCCC2)CC1 (stereo not given) | inactive: -0.89% |
| CCCCn1nnnc1C(c1cccc(OC)c1OC)N1CCC(n2c(=O)[nH]c3ccccc32)CC1 (stereo not given) | inactive: -3.89% |
| CC(C)c1ccc(NC2CCN(C(=O)OC(C)(C)C)CC2)cc1 | inactive: 6.94% |
| COC(=O)C1(Nc2ccccc2)CCN(Cc2ccccc2)CC1 | inactive: 0.49% |
| COc1ccc(CN(CCCl)CCCl)cc1Cl | inactive: -0.22% |
| CN(C)c1cccc(C(=O)NCC2(N3CCCCC3)CCCCC2)c1 | inactive: 1.11% |
| COc1cc(OC)c(C(=O)NCC2(N(C)C)CCCCC2)cc1OC | inactive: 4.79% |
| CCC(c1nnnn1C(C)(C)C)N1CCC(n2c(=O)[nH]c3ccccc32)CC1 (stereo not given) | inactive: 3.08% |
| O=C(NCC1(N2CCOCC2)CCCCC1)c1cc(F)c(F)cc1Cl | inactive: 1.82% |
| CCCCn1nnnc1C(c1ccnc2ccccc12)N1CCC(n2c(=O)[nH]c3ccccc32)CC1 (stereo not given) | inactive: -6.34% |
| O=C(NCC1(N2CCCCC2)CCCCC1)c1cncc(Br)c1 | inactive: 9.4% |
| CN1CCC(Nc2cccc(F)c2)CC1 | inactive: -2.67% |
| COc1ccc(C(c2nnnn2C2CCCC2)N2CCC(n3c(=O)[nH]c4ccccc43)CC2)cc1 (stereo not given) | inactive: -3.42% |
| Cc1ccc(C(=O)NCC2(N(C)C)CCCCC2)o1 | inactive: -3.03% |
| CCCOc1ccc(C(=O)NCC2(N(C)C)CCCCC2)cc1OC | inactive: 0.51% |
| CC(C)(C)n1nnnc1C(c1ccccc1OC(F)(F)F)N1CCC(n2c(=O)[nH]c3ccccc32)CC1 (stereo not given) | inactive: 0.79% |
| O=C(NCC1(N2CCCCC2)CCCCC1)c1ccc(OC(F)F)cc1 | inactive: -7.9% |
| CCN1CCC(Nc2ccc(Cl)cc2)CC1 | inactive: -4.18% |
| N#CC1(Nc2ccccc2)CCN(CCc2ccccc2)CC1 | inactive: 2.9% |

| SMILES | inhibition |
| --- | --- |
| O=c1[nH]c2ccccc2n1C1CCN(C(c2ccccc2OC(F)(F)F)c2nnnn2C2CCCC2)CC1 (stereo not given) | inactive: -8.25% |
| CSc1ccc(C(=O)NCC2(N3CCOCC3)CCCCC2)cc1 | inactive: 0.54% |
| O=C(NCC1(N2CCCCC2)CCCCC1)c1cccc([N+](=O)[O-])c1 | inactive: -10.9% |
| O=C(NCC1(N2CCCCC2)CCCCC1)c1cccc(C(F)(F)F)c1 | inactive: 6.94% |
| COc1cc(C(=O)NCC2(N3CCCCC3)CCCCC2)ccc1OC(F)F | inactive: 7.47% |
| O=C(NCC1(N2CCOCC2)CCCCC1)c1cc(=O)[nH]c2ccccc12 | inactive: 1.74% |
| CCCCn1nnnc1C(c1cccc2ccccc12)N1CCC(n2c(=O)[nH]c3ccccc32)CC1 (stereo not given) | inactive: -3.19% |
| CN1CCN(CCOC(=O)C(O)(c2ccccc2)c2ccccc2)CC1 | inactive: -1.49% |
| CC(C)c1ccc(C(=O)NCC2(N3CCOCC3)CCCCC2)cc1 | inactive: 7.75% |
| COc1ccc(NC2CCN(C(=O)OC(C)(C)C)CC2)cc1 | inactive: -4.31% |
| CC(C)(C)n1nnnc1C(c1ccccc1)N1CCC(n2c(=O)[nH]c3ccccc32)CC1 (stereo not given) | inactive: 2.47% |
| O=C1CCN(Cc2ccccc2)CC1 | inactive: -2.84% |
| CCOc1ccc(C)cc1CN(CCCl)CCCl | inactive: 2.29% |
| O=C(NCC1(N2CCCCC2)CCCCC1)c1ccc(F)cc1 | inactive: 1.35% |
| O=P1(N(CCCl)CCCl)SCCCS1 | inactive: -3.4% |
| CCCCn1nnnc1C(c1cc2ccccc2o1)N1CCC(n2c(=O)[nH]c3ccccc32)CC1 (stereo not given) | inactive: 5.15% |
| CCCCOc1ccc(C(=O)NCC2(N3CCOCC3)CCCCC2)cc1 | inactive: 1.45% |
| COc1ccc(NC2CCN(CCc3ccccc3)CC2)c(OC)c1 | inactive: 5.49% |
| CCOC(=O)N1CCC(Nc2ccc(F)cc2)CC1 | inactive: 4.97% |
| O=c1[nH]c2ccccc2n1C1CCN(C(c2ccccc2)c2nnnn2C2CCCCC2)CC1 (stereo not given) | inactive: -2.89% |
| COc1cc(C(=O)NCC2(N(C)C)CCCCC2)ccc1OC(F)F | inactive: -3.7% |
| CCOC(=O)N1CCC(Nc2cccc(C)c2)CC1 | inactive: -4.83% |

| SMILES | inhibition |
| --- | --- |
| O=c1[nH]c2ccccc2n1C1CCN(C(c2cccc3ccccc23)c2nnnn2C2CCCC2)CC1 (stereo not given) | inactive: -4.22% |
| COc1ccc(C(=O)NCC2(N3CCCCC3)CCCCC2)cc1 | inactive: -3.22% |
| CCC(c1nnnn1C1CCCC1)N1CCC(n2c(=O)[nH]c3ccccc32)CC1 (stereo not given) | inactive: -1.5% |
| CC(C)(C)OC(=O)N1CCC(N(C(=O)c2ccccc2)c2ccc(F)cc2)CC1 | inactive: -2.49% |
| COc1ccc(C(=O)NCC2(N3CCCCC3)CCCCC2)c(OC)c1OC | inactive: 1.59% |
| O=C(NCC1(N2CCCCC2)CCCCC1)c1ccc(=O)[nH]c1 | inactive: 1.41% |
| CCCCn1nnnc1C(c1cccs1)N1CCC(n2c(=O)[nH]c3ccccc32)CC1 (stereo not given) | inactive: 10.2% |
| O=C(NCC1(N2CCCCC2)CCCCC1)c1cccs1 | inactive: -1.81% |
| CCCCn1nnnc1C(CC)N1CCC(n2c(=O)[nH]c3ccccc32)CC1 (stereo not given) | inactive: 0.7% |
| CSc1ccccc1C(=O)NCC1(N2CCCCC2)CCCCC1 | inactive: 2.27% |
| Cc1cccc(NC2(C#N)CCN(Cc3ccccc3)CC2)c1 | inactive: -4.25% |
| O=c1[nH]c2ccccc2n1C1CCN(C(c2ccccc2OC(F)(F)F)c2nnnn2C2CCCCC2)CC1 (stereo not given) | inactive: 8.86% |
| O=C(NCC1(N2CCCCC2)CCCCC1)c1ccc(Cl)nc1 | inactive: -6.11% |
| Cc1cc(C)cc(N(C(=O)c2ccccc2)C2CCN(C(=O)OC(C)(C)C)CC2)c1 | inactive: 1.03% |
| O=C(NCC1(N2CCOCC2)CCCCC1)c1cc2ccccc2o1 | inactive: -5.4% |
| O=C(OC1CN2CCC1CC2)C1c2ccccc2Oc2ccccc21 (stereo not given) | inactive: 11.6% |
| O=c1[nH]c2ccccc2n1C1CCN(C(c2cc3ccccc3o2)c2nnnn2C2CCCCC2)CC1 (stereo not given) | inactive: 3.72% |
| N#CC1(Nc2ccccc2)CCN(Cc2ccccc2)CC1 | inactive: 3.48% |
| O=C(NCC1(N2CCCCC2)CCCCC1)c1ccc(Cl)s1 | inactive: -4.82% |
| COc1ccc(Cl)cc1C(=O)NCC1(N2CCOCC2)CCCCC1 | inactive: -1.3% |
| CCOC(=O)N1CCC(Nc2ccc(OC)cc2)CC1 | inactive: -6.35% |
| CCCCn1nnnc1C(c1ccc(OC)cc1)N1CCC(n2c(=O)[nH]c3ccccc32)CC1 (stereo not given) | inactive: -7.56% |
